Results published in patent US20010055590A1, “Method for enhancing myoblast migration and invasion in the context of gene therapy” (priority 1999, published 2001).
Entries after “also recorded” stand apart in the source; their conditions may differ.

What was measured:
Format in all cases: cell-based
mouse myoblasts [1] = assay: In vitro mouse myoblast migration assay (gelatin-coated membrane); conditions: 12 hours; stimulant in bottom chamber
Procedure: (§1) Mouse myoblasts were previously isolated from hind limb muscles of 4-6 week old severe combined immunodeficient (SCID) mice and clonally purified from contaminating fibroblasts (Yao et al. “Primary myoblast-mediated gene: transfer: persistent expression of human factor IX in mice” Gene Therapy 1:99-107, 1994). Myoblasts (approximately 1×10^6 cells) were plated on 6 cm tissue culture plates coated with 0.5% gelatin (Sigma, St. Louis, Mo.) and grown in growth medium consisting of Dulbecco's Modified Eagle Medium (DMEM) (Gibco BRL, Gaithersburg Md.) supplemented with 20% fetal bovine serum (FBS; Gibco) and 0.5% chick embryo extract (CEE; Gibco). All animal studies were carried out following the institutional guidelines for ethical animal use. Human myoblasts were isolated using trypsin digestion from abdominal wall or chest wall muscle biopsies, and surgery. […] Myoblast migration and invasion were examined using a commercially available in vitro cell migration and invasion assay kit (Biocoat, Becton Dickinson, Franklin Lakes, N.J.) as described by Albini et al. (A rapid in vitro assay for quantitating the invasive potential of tumor cells Cancer Res 47:3239-3245, 1987). […] The number of cells per field was counted in 10 randomly selected fields and averaged for each condition. […]

mouse myoblasts [2] = assay: In vitro mouse myoblast invasion assay across Matrigel barrier; conditions: 24 hours
Procedure: as §1

MMP-2 = assay: Gelatin zymography of mouse myoblast culture medium, MMP-2; conditions: mouse myoblasts treated 24 hours
Procedure: (§2) Gelatin zymography for assaying MMPs was carried out as previously described (Guerin and Holland “Synthesis and secretion of matrix-degrading metalloproteinases by human skeletal muscle satellite cells” Devel. Dynamics 202:91-99,1995) with minor modifications. Briefly, myoblasts were grown in 6 cm tissue culture plates to approximately 70% confluence, then rinsed three times with serumfree DMEM and incubated for 3 hours in DMEM containing 0.2% BSA to eliminate the effects of serum. Growth factors were added and cells were incubated for 24 hours. Culture medium was then collected, centrifuged to pellet detached cells, and concentrated ten-to twenty-fold using the Centricon-10 (Amicon, Beverly, Mass.) system. The protein concentration of the supernatants was determined using the Bio-Rad protein microassay system with BSA used as the standard. Samples were stored at −70° C. until use. For gelatin zymography, aliquots (10 μg as the total protein per sample) were electrophoresed at constant voltage on a 10% polyacrylamide gel containing 2 mg/ml gelatin. […] Proteinase activity was quantified by densitometric scanning of bands using a Bio-Rad Gel Doc 1000 video camera imaging system (Bio Rad, Hercules, Calif.). […]

MMP-9 [3] = assay: Gelatin zymography of mouse myoblast culture medium, MMP-9
Procedure: as §2

MMP-9 [4] = assay: Gelatin zymography of human myoblasts, MMP-9
Procedure: as §2

Substance: recombinant human tumor necrosis factor-α [TNF-α]
- effect on mouse myoblast migration (mouse myoblasts [1]): stimulated migration of mouse myoblasts to various degrees; also recorded: marginal effects
- effect on mouse myoblast Matrigel invasion (mouse myoblasts [2]): marginal effects
- effect on MMP-2 expression (MMP-2): only negligibly increased MMP-2 expression
- effect on MMP-9 expression (MMP-9 [3]; mouse myoblasts): can strongly induce MMP-9 expression
- MMP-9 expression (110 kDa band) over the DMEM control level (MMP-9 [3]; mouse myoblasts treated 24 hours): approximately 30 fold
- effect on MMP-9 expression (92 kDa band) (MMP-9 [4]): only marginal increases in MMP-9 expression
